These are literature values, as cited in patent US20060293323A1, “Therapeutic Combinations of erb B Kinase Inhibitors and Antineoplastic Therapies” (priority 2002, published 2006).

For data set [1], the system named is 253JB-V human bladder. The following applies: grown orthotopically in athymic nude mice; cited from earlier work.
For data set [2] the following is noted: cited from earlier work.
Data set [3] deals with variety of human tumor cell lines. The following applies: cited from earlier work.
The subject of data set [4] is BT-474 human breast carcinoma. The following applies: cited from earlier work.

Read-outs that look alike come from different tables or passages of the source.

Regarding “C-225: monoclonal antibody directed against the EGF receptor”, the “effect on antitumor effects of paclitaxel” value in data set [1] is “enhance the antitumor effects of paclitaxel”. For the same substance, the “antitumor activity of combination with topotecan” value is given as “markedly suppressed” in data set [2] (C225 given first); “greatest effect” in data set [2] (topotecan first, antibody one day later); “Activity was less” in data set [2] (two drugs given simultaneously).

With “Herceptin: monoclonal antibody which specifically neutralizes erbB-2”, in data set [3], the “effect on activity of paclitaxel in vitro” value is listed as “enhanced the activity of paclitaxel”. Further, the “effect on activity of paclitaxel in vivo” value in data set [4] is given as “enhanced the activity of paclitaxel”.
